Reference: patent publication US20250235418A1, “Butyrate Analogues and Methods of Use for HIF Stabilization and Treatment of Bowel Disease” (THE REGENTS OF THE UNIVERSITY OF COLORADO, A BODY CORPORATE, priority 2022, published 2025)

Chains of the proteins cited; added tags and fusions are not shown. Residues count along the entry.
UniProt Q9GZT9, 181-402: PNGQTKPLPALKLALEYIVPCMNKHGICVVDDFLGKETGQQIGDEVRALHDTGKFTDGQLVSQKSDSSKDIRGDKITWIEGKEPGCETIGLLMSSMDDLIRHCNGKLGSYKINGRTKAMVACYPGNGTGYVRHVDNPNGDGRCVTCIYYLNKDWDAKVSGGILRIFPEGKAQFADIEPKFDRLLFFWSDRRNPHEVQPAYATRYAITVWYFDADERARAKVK

Target: T1, PHD2181-402 (Homo sapiens, UniProt Q9GZT9)
T1 construct: made in house
Assay: bioluminescent succinate detection assay of recombinant PHD2181-402 activity/inhibition
Format: biochemical
Source text: To pinpoint if butyrate inhibits PHDs directly, we expressed recombinant PHD derived from the human PHD2 sequence. There are three human PHDs: PHD1, PHD2, and PHD3, with PHD2 being the most abundant and expressed in the majority of tissues, the most important regulator of HIF, particularly HIF-1α, and the only PHD that is embryonically lethal when deleted. PHD1 is exclusively localized to the nucleus, whereas PHD2 is mainly cytoplasmic, and PHD3 is both. […] Sequence comparisons and modeling studies indicate that the PHD2 active site is highly conserved among the PHDs.
IC50s depend on exact experimental conditions, making direct comparisons and global applications difficult.

## O=C(O)CCC(=O)C(=O)O [2-OG, 2-oxoglutarate]
  Km: 1.2 µM
